Measurements: US10882853B2

Columns and labels:
[1] = tested on: human colon cancer cells HCT116; test: Inhibition on the proliferation of tumor cells (CCK8), HCT116; conditions: read-out: HCT116 IC50, 72 h
[2] = tested on: human lung adenocarcinoma cells A549; test: Inhibition on the proliferation of tumor cells (CCK8), A549; conditions: read-out: A549 IC50, 72 h
[3] = tested on: human lung adenocarcinoma cells HCC78; test: Inhibition on the proliferation of tumor cells (CCK8), HCC78; conditions: read-out: HCC78 IC50, Table 3 (FIG. 1), 72 h
[4] = tested on: human ovarian cancer cells SK-OV-3; test: Inhibition on the proliferation of tumor cells (CCK8), SK-OV-3; conditions: read-out: SK-OV-3 IC50, 72 h

IC50 [1]: 3.1 µM | IC50 [2]: 4.92 µM | IC50 [3]: 0.118 µM | IC50 [4]: 11.6 µM
Compound: COc1cc2c(Oc3ccc(NC(=O)C4(C(=O)Nc5ccc(F)cc5)CC4)cc3F)ccnc2cc1OCCC[N+]1([O-])CCOCC1
